Experimental data as given in ChEMBL document CHEMBL4480374, “Methoxy substituted 2-benzylidene-1-indanone derivatives as A1 and/or A2A AR antagonists for the potential treatment of neurological conditions” (Medchemcomm, 2019).

Molecular target: Adenosine receptor A2a (Homo sapiens, UniProt P29274)
Assay: Antagonist activity at human adenosine A2A receptor

Ki: 1760 nM
Compound: CC(C)n1cc(-c2ncc(N)nc2-c2ccc(F)cc2)ccc1=O
